Measurements: patent US20160376605A1, “WHEAT PLANTS HAVING INCREASED TOLERANCE TO IMIDAZOLINONE HERBICIDES” (BASF SE, priority 2003, published 2016)

What was measured:
[1] = tested on: AHAS enzyme extracted from durum line C119
[2] = tested on: AHAS enzyme extracted from durum line UT01
[3] = tested on: AHAS enzyme extracted from durum line UT03
[4] = tested on: AHAS enzyme extracted from durum line UT05
[5] = tested on: AHAS enzyme extracted from durum line UT07
[6] = tested on: AHAS enzyme extracted from durum line UT08
[7] = tested on: AHAS enzyme extracted from durum line UT10
[8] = tested on: AHAS enzyme extracted from durum line UT12
[9] = tested on: AHAS enzyme extracted from durum line UT13
[10] = tested on: AHAS enzyme extracted from durum line UT14
[11] = tested on: AHAS enzyme extracted from durum line UT16
[12] = tested on: AHAS enzyme extracted from durum line UT17
[13] = tested on: AHAS enzyme extracted from durum line UT20
[14] = tested on: AHAS protein extracted from wild type Durum wheat plants (Line UT)

## COCc1cnc(C2=NC(C)(C(C)C)C(=O)N2)c(C(=O)O)c1 (centres unmarked) [imazamox]
[1]; 13 uM Imazamox
  In vitro AHAS activity, expressed as percent of control: 54.0% of control
[1]; 25 uM Imazamox
  In vitro AHAS activity, expressed as percent of control: 56.3% of control
[1]; 50 uM Imazamox
  In vitro AHAS activity, expressed as percent of control: 55.3% of control
[1]; 100 uM Imazamox
  In vitro AHAS activity, expressed as percent of control: 41.9% of control
[2]; 13 uM Imazamox
  In vitro AHAS activity, expressed as percent of control: 61.6% of control
[2]; 25 uM Imazamox
  In vitro AHAS activity, expressed as percent of control: 58.5% of control
[2]; 50 uM Imazamox
  In vitro AHAS activity, expressed as percent of control: 54.1% of control
[2]; 100 uM Imazamox
  In vitro AHAS activity, expressed as percent of control: 49.6% of control
[3]; 13 uM Imazamox
  In vitro AHAS activity, expressed as percent of control: 73.7% of control
[3]; 25 uM Imazamox
  In vitro AHAS activity, expressed as percent of control: 63.5% of control
[3]; 50 uM Imazamox
  In vitro AHAS activity, expressed as percent of control: 60.3% of control
[3]; 100 uM Imazamox
  In vitro AHAS activity, expressed as percent of control: 52.2% of control
[4]; 13 uM Imazamox
  In vitro AHAS activity, expressed as percent of control: 54.1% of control
[4]; 25 uM Imazamox
  In vitro AHAS activity, expressed as percent of control: 59.5% of control
[4]; 50 uM Imazamox
  In vitro AHAS activity, expressed as percent of control: 56.9% of control
[4]; 100 uM Imazamox
  In vitro AHAS activity, expressed as percent of control: 45.4% of control
[5]; 13 uM Imazamox
  In vitro AHAS activity, expressed as percent of control: 64.3% of control
[5]; 25 uM Imazamox
  In vitro AHAS activity, expressed as percent of control: 61.3% of control
[5]; 50 uM Imazamox
  In vitro AHAS activity, expressed as percent of control: 46.9% of control
[5]; 100 uM Imazamox
  In vitro AHAS activity, expressed as percent of control: 50.6% of control
[6]; 13 uM Imazamox
  In vitro AHAS activity, expressed as percent of control: 60.3% of control
[6]; 25 uM Imazamox
  In vitro AHAS activity, expressed as percent of control: 55.3% of control
[6]; 50 uM Imazamox
  In vitro AHAS activity, expressed as percent of control: 49.6% of control
[6]; 100 uM Imazamox
  In vitro AHAS activity, expressed as percent of control: 41.2% of control
[7]; 13 uM Imazamox
  In vitro AHAS activity, expressed as percent of control: 68.4% of control
[7]; 25 uM Imazamox
  In vitro AHAS activity, expressed as percent of control: 59.7% of control
[7]; 50 uM Imazamox
  In vitro AHAS activity, expressed as percent of control: 54.9% of control
[7]; 100 uM Imazamox
  In vitro AHAS activity, expressed as percent of control: 46.6% of control
[8]; 13 uM Imazamox
  In vitro AHAS activity, expressed as percent of control: 58.3% of control
[8]; 25 uM Imazamox
  In vitro AHAS activity, expressed as percent of control: 55.6% of control
[8]; 50 uM Imazamox
  In vitro AHAS activity, expressed as percent of control: 52.7% of control
[8]; 100 uM Imazamox
  In vitro AHAS activity, expressed as percent of control: 44.9% of control
[9]; 13 uM Imazamox
  In vitro AHAS activity, expressed as percent of control: 73.2% of control
[9]; 25 uM Imazamox
  In vitro AHAS activity, expressed as percent of control: 60.4% of control
[9]; 50 uM Imazamox
  In vitro AHAS activity, expressed as percent of control: 51.8% of control
[9]; 100 uM Imazamox
  In vitro AHAS activity, expressed as percent of control: 46.5% of control
[10]; 13 uM Imazamox
  In vitro AHAS activity, expressed as percent of control: 62.4% of control
[10]; 25 uM Imazamox
  In vitro AHAS activity, expressed as percent of control: 53.5% of control
[10]; 50 uM Imazamox
  In vitro AHAS activity, expressed as percent of control: 56.8% of control
[10]; 100 uM Imazamox
  In vitro AHAS activity, expressed as percent of control: 55.6% of control
[11]; 13 uM Imazamox
  In vitro AHAS activity, expressed as percent of control: 51.9% of control
[11]; 25 uM Imazamox
  In vitro AHAS activity, expressed as percent of control: 46.7% of control
[11]; 50 uM Imazamox
  In vitro AHAS activity, expressed as percent of control: 45.5% of control
[11]; 100 uM Imazamox
  In vitro AHAS activity, expressed as percent of control: 41.7% of control
[12]; 13 uM Imazamox
  In vitro AHAS activity, expressed as percent of control: 59.3% of control
[12]; 25 uM Imazamox
  In vitro AHAS activity, expressed as percent of control: 48.0% of control
[12]; 50 uM Imazamox
  In vitro AHAS activity, expressed as percent of control: 48.0% of control
[12]; 100 uM Imazamox
  In vitro AHAS activity, expressed as percent of control: 36.5% of control
[13]; 13 uM Imazamox
  In vitro AHAS activity, expressed as percent of control: 63.4% of control
[13]; 25 uM Imazamox
  In vitro AHAS activity, expressed as percent of control: 61.8% of control
[13]; 50 uM Imazamox
  In vitro AHAS activity, expressed as percent of control: 50.3% of control
[13]; 100 uM Imazamox
  In vitro AHAS activity, expressed as percent of control: 40.3% of control
[14]; 13 uM Imazamox
  In vitro AHAS activity, expressed as percent of control: 15.9% of control
[14]; 25 uM Imazamox
  In vitro AHAS activity, expressed as percent of control: 11.1% of control
[14]; 50 uM Imazamox
  In vitro AHAS activity, expressed as percent of control: 10.2% of control
[14]; 100 uM Imazamox
  In vitro AHAS activity, expressed as percent of control: 5.4% of control

Like-named read-outs stand apart in the source and are kept apart here.
